Patent US11472769B2, “SSAO inhibitors and use thereof” (Eccogene (Shanghai) Co., Ltd., priority 2019, dated 2022)

The chains behind the UniProt entries cited, without tags or fusion partners.
UniProt P27338, whole entry: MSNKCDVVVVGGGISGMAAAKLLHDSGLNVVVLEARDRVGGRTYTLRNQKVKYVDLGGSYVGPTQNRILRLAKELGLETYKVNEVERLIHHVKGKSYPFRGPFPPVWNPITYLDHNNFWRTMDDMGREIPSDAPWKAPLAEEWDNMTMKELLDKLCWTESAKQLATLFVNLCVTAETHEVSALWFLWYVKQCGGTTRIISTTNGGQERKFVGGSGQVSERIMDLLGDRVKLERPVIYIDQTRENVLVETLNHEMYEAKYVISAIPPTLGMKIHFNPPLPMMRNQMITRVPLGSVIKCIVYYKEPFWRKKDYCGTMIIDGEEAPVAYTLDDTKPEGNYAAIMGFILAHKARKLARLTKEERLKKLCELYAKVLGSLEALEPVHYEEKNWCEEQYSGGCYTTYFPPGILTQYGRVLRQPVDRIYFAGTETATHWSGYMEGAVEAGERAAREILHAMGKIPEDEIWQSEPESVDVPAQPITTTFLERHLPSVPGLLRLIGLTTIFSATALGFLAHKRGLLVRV
UniProt P21397, whole entry: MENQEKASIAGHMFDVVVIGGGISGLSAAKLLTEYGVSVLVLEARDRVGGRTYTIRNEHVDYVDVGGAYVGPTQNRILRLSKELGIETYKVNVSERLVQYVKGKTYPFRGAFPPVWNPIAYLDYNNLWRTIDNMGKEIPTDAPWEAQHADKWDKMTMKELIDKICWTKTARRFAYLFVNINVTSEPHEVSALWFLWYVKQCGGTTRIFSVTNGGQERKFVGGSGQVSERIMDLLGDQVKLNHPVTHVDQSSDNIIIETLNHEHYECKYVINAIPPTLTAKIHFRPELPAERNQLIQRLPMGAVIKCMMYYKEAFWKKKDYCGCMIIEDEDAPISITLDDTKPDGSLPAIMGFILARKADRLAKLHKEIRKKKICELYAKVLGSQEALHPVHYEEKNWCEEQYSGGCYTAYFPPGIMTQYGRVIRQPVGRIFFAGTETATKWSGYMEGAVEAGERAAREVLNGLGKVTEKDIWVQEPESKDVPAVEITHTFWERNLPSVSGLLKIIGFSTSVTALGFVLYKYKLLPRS
UniProt Q16853, whole entry: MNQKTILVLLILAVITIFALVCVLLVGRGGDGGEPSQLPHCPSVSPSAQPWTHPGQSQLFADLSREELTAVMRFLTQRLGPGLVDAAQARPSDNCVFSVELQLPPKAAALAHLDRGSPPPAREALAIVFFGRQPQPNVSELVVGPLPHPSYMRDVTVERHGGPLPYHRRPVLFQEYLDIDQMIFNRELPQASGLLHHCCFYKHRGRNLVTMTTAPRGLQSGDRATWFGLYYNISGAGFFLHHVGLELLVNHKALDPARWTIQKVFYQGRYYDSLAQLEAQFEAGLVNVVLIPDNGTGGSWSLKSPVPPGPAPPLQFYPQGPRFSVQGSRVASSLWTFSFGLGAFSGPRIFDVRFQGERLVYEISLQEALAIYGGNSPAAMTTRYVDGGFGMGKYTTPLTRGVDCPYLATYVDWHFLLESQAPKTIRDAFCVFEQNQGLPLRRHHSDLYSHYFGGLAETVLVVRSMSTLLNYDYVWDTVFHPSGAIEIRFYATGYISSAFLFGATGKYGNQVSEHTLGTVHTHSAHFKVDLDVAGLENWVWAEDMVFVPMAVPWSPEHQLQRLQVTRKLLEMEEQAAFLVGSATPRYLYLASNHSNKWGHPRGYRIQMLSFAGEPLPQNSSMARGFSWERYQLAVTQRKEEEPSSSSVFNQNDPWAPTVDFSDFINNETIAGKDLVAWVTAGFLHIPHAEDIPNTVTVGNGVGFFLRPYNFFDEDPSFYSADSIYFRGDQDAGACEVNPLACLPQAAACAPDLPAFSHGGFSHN

Tests used:
Type in all cases: biochemical
recombinant hMAO-B = recombinant hMAO-B (Homo sapiens (Human), UniProt P27338); assay: MAO-B activity assay (MAO-Glo assay kit)
recombinant hMAO-A = recombinant hMAO-A (Homo sapiens (Human), UniProt P21397); assay: MAO-A activity assay (MAO-Glo assay kit); conditions: read-out: MAO-A Activity (IC50), 40 μM substrate, 30 mins pre-incubation, tested form: HCl
recombinant hSSAO = recombinant hSSAO (Homo sapiens (Human), UniProt Q16853); assay: SSAO Activity Assay (MAO-Glo assay kit)
[1] = read-out: MAO-B Activity (IC50), 4 μM substrate, 30 mins pre-incubation, tested form: HCl
[2] = read-out: SSAO Activity (IC50), 40 μM substrate, 30 mins pre-incubation, tested form: HCl
[3] = read-out: SSAO Activity (IC50), 40 μM substrate, 30 mins pre-incubation

Row | Compound | IC50 (recombinant hMAO-B; [1]) | IC50 (recombinant hMAO-A) | IC50 (recombinant hSSAO; [2]) | IC50 (recombinant hSSAO; [3]) | IC50 (recombinant hMAO-B; read-out: MAO-B Activity (IC50), 4 μM substrate, 30 mins pre-incubation)
1 | CC(C)N1CCC2(CCC(CS(=O)(=O)c3ccc(OC/C(=C/F)CN)cc3)CC2)C1=O (single isomer, unassigned) | > 30 µM | > 30 µM | 0.02 to 0.1 µM |  | 
2 | CC(CN1CCC2(CCCC2)C1=O)CS(=O)(=O)c1ccc(OC/C(=C/F)CN)cc1 (single isomer, unassigned) | < 10 µM | > 30 µM | 0.02 to 0.1 µM |  | 
3 | NCC(=CF)COc1ccc(S(=O)(=O)CC2CCOC2)cc1 (single isomer, unassigned) |  |  |  | 0.02 to 0.1 µM | 
4 | CC(CN1CCCC1=O)CS(=O)(=O)c1ccc(OC/C(=C/F)CN)cc1 (single isomer, unassigned) | > 30 µM | > 30 µM |  |  | 
5 | CC1(C)COC(CS(=O)(=O)c2ccc(OC/C(=C/F)CN)cc2)CO1 (single isomer, unassigned) |  |  |  | 0.02 to 0.1 µM | 10 to 30 µM

Like-named read-outs stand apart in the source and are kept apart here.
